From patent US20220183937A1, “METHOD FOR IMPROVING THE PERFORMANCE OF A FRAGRANCE OR A FRAGRANCE MIXTURE” (SYMRISE AG, priority 2019, published 2022)

Test: Boiling point of fragrance raw materials

Substance	Boiling Point (Example 2, fragrances for thermo boost performance, head range 230.1 a 300.0)	Boiling Point (Example 1, fragrances for long lasting performance, head range 1.00 a 230.0)
PARMANYL®	249.6 °C	–
HEXENYL ACETATE CIS TRANS-3	–	176.6 °C
